Patent US7829708B2, “Metabolically inert antifolates for treating disorders of abnormal cellular proliferation and inflammation” (Chelsea Therapeutics, Inc., priority 2004, dated 2010)

Amino acid sequences for entries named in this document (tags omitted). A change or cut given only in a name is not applied to a line headed by its entry.
UniProt P04818: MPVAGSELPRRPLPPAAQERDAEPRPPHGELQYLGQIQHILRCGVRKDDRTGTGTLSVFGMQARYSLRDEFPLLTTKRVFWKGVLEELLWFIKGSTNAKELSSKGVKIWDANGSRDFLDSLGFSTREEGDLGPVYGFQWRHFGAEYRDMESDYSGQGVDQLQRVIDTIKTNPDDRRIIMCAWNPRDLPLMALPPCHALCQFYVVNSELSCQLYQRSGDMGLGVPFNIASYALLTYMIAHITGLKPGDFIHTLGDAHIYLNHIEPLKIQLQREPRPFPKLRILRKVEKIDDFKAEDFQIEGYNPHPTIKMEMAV

Columns and labels:
human DHFR = target: T1, human DHFR (Homo sapiens, UniProt P00374); experiment: Inhibition of recombinant dihydrofolate reductase in vitro; type: biochemical; settings: read-out: I50 (human DHFR)
T1 sequence (P00374 1-187): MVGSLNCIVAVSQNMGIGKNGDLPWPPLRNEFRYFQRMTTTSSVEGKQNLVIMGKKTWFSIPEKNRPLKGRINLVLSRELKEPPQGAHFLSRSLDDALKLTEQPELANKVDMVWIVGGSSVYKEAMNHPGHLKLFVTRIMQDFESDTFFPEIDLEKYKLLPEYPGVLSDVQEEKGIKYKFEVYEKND

Human TS = Human TS (Homo sapiens, UniProt P04818); experiment: Inhibition of recombinant thymidylate synthase in vitro; type: biochemical; settings: read-out: I50 (Human TS)

In the case of Nc1nc2[nH]cc(CCc3ccc(C(=O)N[C@@H](CCC(=O)O)C(=O)O)cc3)c2c(=O)[nH]1 [MTA (LY-231514)], the IC50 (human DHFR) is reported as 6.6 µM and the IC50 (Human TS) is reported as 11 µM.
